Legend:
Type in all cases: cell-based
HBeAg = test: HBeAg, multiplex assay, HBV-infected PHH; settings: patient-derived HBV GT D, MOI 40, treatment from day 3, day 10 pi
Method: (§1) Fresh primary human hepatocytes (PXB-PHH) harvested from humanized mice (uPA/SCID mice)—herein called PHH—were obtained from PhoenixBio Co., Ltd (Japan). Cells were seeded on a collagen I-coated plate at the following cell density: 35,000 cells/well (384-well), 70,000 cells/well (96-well), or, 400,000 cells/well (24-well) in modified hepatocyte clonal growth medium (dHCGM). dHCGM is a DMEM medium containing 100 U/ml Penicillin, 100 μg/ml Streptomycin, 20 mM Hopes, 44 mM NaHCO3, 15 μg/ml L-proline, 0.25 μg/ml insulin, 50 nM Dexamethazone, 5 ng/ml EGF, 0.1 mM Asc-2P, 2% DMSO and 10% FBS (Ishida et al., 2015). Cells were cultured at 37° C. incubator in a humidified atmosphere with 5% CO2. […]
(§2) Following 4 day of maturation with 1 μM MB-1, HLC were incubated with HBV (purified from CHB individuals) at multiplicity of infection (MOI) 10-40 without PEG for 24 hr; virus inoculum was removed the following day. […] Compound effect on HBV and cellular toxicity was measured by multiplex assay (HBsAg, HBeAg, albumin), branched DNA (pgRNA), or digital PCR (cccDNA) and depicted as % of inhibition compared to DMSO control. […]
(§3) A custom, Luminex-based multiplex assay that simultaneously measured HBeAg, albumin, and HBsAg was developed by Radix BioSolutions (Georgetown, Tex.). […] Samples were read on FlexMAP 3D (Luminex) and analyzed by Genedata software.

HBsAg = test: HBsAg, multiplex assay, HBV-infected PHH; settings: patient-derived HBV GT D, MOI 40, treatment from day 3, day 10 pi
Method: as §1, §2, §3

cccDNA = cccDNA assay (digital PCR), HBV-infected PHH; settings: patient-derived HBV GT D, MOI 40, treatment from day 3, day 10 pi, dPCR
Method: as §1, §2
HBV-infected cells (in 384- or 96-well plate) were lysed with Cells-to-CT Lysis Reagents according to manufacturer's instruction (Thermo Scientific). […] Digital PCR assay was run on QuantStudio 12K Flex (AB) and data was analyzed by Digital Suite Software (AB).

HBV DNA = HBV DNA in culture medium of HBV-infected PHH; settings: patient-derived HBV GT D, MOI 40, treatment from day 3, day 10 pi
Method: FIG. 8: Establishment of dPCR assay for cccDNA quantification. (A) Detection ranges of TaqMan-PCR assay limits accurate determination of cccDNA copy number from 96- and 384-well plate. A 3.2-kb, linearized plasmid HBV is used as a standard curve for relative quantification of HBV DNA by TaqMan-PCR. Plasmid was diluted 10-fold (from 2×10^9 copies/μl to 2×10^3 copies/μl) and HBV DNA was amplified using core primers (Werle-Lapostolle et al., 2004); the LLOD of this assay (˜1×10^3 copies/μl) overlaps with the lower levels of cccDNA present in cells grown in 384-well plate. The total amount of cccDNA in HLC and PHH in 384-well plate is ˜1,200-12,000 copies/well (assuming 40% infection rate of ˜30K cells seeded, and on average, there is 0.1-1 cccDNA copy/cell) (Nassal, 2015). […] In contrast to TaqMan-PCR (relative quantification method), digital PCR (dPCR) is an absolute quantification method without the need of standard curve. […] Low signal was detected with cccDNA primer, indicating non-specific amplification of RC-DNA. […] At day 10 pi, culture media were harvested and measured for HBV DNA, HBsAg, and HBeAg. […] Cells were lysed and treated with T5 exonuclease, cccDNA was then measured by dPCR on QuantStudio 12K Flex Real-Time PCR System (AB); 4 subarrays (256 through-holes) were used for each sample. […] Cells were harvested at day 10 pi; viral markers and albumin were measured from culture medium. […]

Roferon: marketed HBV drug, interferon-α, an immunomodulator [reference compound]
effect on HBeAg (other viral markers) (HBeAg): no effect
effect on HBsAg (other viral markers) (HBsAg): no effect
effect on cccDNA (other viral markers) (cccDNA): no effect
effect on HBV DNA (HBV DNA): highly potent

Source: patent US20230248723A1, “PYRROLO[2,3-B]PYRAZINE COMPOUNDS AS CCCDNA INHIBITORS FOR THE TREATMENT OF HEPATITIS B VIRUS (HBV) INFECTION” (Hoffmann-La Roche Inc., priority 2017, published 2023)
